Test results: patent US12201629B2 (priority 2017, dated 2025)

Tests used:
rats [1] = assay: Example 3A: respiratory depression, arterial blood gas analysis; format: in vivo, rat
rats [2] = assay: Example 3A: analgesia effects in rats (FIGS. 23, 26, 29); settings: sc; oxycodone 8, fentanyl 0.5, hydromorphone 10 mg/kg
[3] = opioid alone sc, 1 hour post-dosing, hydromorphone HCl 10, fentanyl citrate 0.5, oxycodone HCl 8, morphine sulfate 30 mg/kg
[4] = rats, sc, oxycodone 8, fentanyl 0.5, hydromorphone 10 mg/kg

Structure (SMILES): COc1ccc2c3c1O[C@H]1C(=O)CC[C@@]4(O)[C@@H](C2)N(C)CC[C@]314.Cl
- arterial blood pH (MODEL) (rats [1]; [3]): 7.266
- pCO2 (MODEL) (rats [1]; [3]): 60.5
- pO2 (MODEL) (rats [1]; [3]): 67.78
- sO2% (MODEL) (rats [1]; [3]): 87.38%
- pCO2 (MODEL + BUPRENORPHINE) (rats [1]; opioid sc + buprenorphine 0.5 mg/kg sc, 1 hour post-dosing, hydromorphone HCl 10, fentanyl citrate 0.5, oxycodone HCl 8 mg/kg, head range (37.9-56.4)): 38.408
- pO2 (MODEL + BUPRENORPHINE) (rats [1]; opioid sc + buprenorphine 0.5 mg/kg sc, 1 hour post-dosing, hydromorphone HCl 10, fentanyl citrate 0.5, oxycodone HCl 8 mg/kg, head range (80-109)): 79.93
- sO2% (MODEL + BUPRENORPHINE) (rats [1]; opioid sc + buprenorphine 0.5 mg/kg sc, 1 hour post-dosing, hydromorphone HCl 10, fentanyl citrate 0.5, oxycodone HCl 8 mg/kg, head range (90-100)): 94.65%
- effects on arterial blood pCO2 and oxygen saturation, drug alone (rats [1]; rats, sc, buprenorphine 0.05-3, oxycodone 3 & 8, hydromorphone 1-10, fentanyl 0.5-1.5 mg/kg): significant effects
- effect of opioid alone on pCO2 (rats [1]; [4]): significant elevation
- effect of opioid alone on sO2% (rats [1]; [4]): significant decrease
- analgesia of opioid alone in the rat (rats [2]): full analgesia
